In EP0632806B1 (priority 1992, dated 1993):

Tested on: rats
Assay: Estimated LD50 in rats
Procedure: In order to assess whether a compound has the required pharmacological activity within the present invention, it is subjected to a series of tests. In the first of such tests, a compound is given as increasing (doubling with each dose) intravenous boluses every 8 minutes to a pentobarbital anesthetized rat. The effects of the compound on blood pressure, heart rate and the ECG are measured 30 seconds and 8 minutes after each dose. Increasing doses are given until the animal dies. The cause of death is identified as being of respiratory or cardiac origin. This test gives an indication as to whether the compound is blocking sodium channels and/or potassium channels, and in addition gives information about acute toxicity. The indices of sodium channel blockade are increasing P-R interval and QRS widening of the ECG. Potassium channel blockade results in Q-T interval prolongation of the ECG.
It is estimated that the LD50 of compound 10 in rats is 16 µmol/kg. For compound 1, the estimated LD50 values in rats is 32 µmol/kg and in mice is 27 µmol/kg. Toxic symptoms of doses exceeding what is required for antiarrhythmic activity include fall in blood pressure or heart rate, and alteration of asystole/idioventricular rhythms. […]

CN(C(=O)Cc1cccc2occc12)[C@@H]1CC[C@]2(CCCO2)C[C@H]1N1CCCC1
LD50: 16 µmol/kg
